# Data published in patent US12214014B2, “Methods for scar reduction by converting scar fibroblasts into adipocytes with hair follicle-derived signals” (The Trustees of the University of Pennsylvania, priority 2017, dated 2025).
# B1: BMP2: human recombinant bone morphogenetic protein 2 (R&D Systems) (protein, UniProt P12643 283-396, looked up)
# Bone morphogenetic protein 2: QAKHKQRKRLKSSCKRHPLYVDFSDVGWNDWIVAPPGYHAFYCHGECPFPLADHLNSTNHAIVQTLVNSVNSKIPKACCVPTELSAISMLYLDENEKVVLKNYQDMVVEGCGCR
# System: mouse dermal cells isolated from day 15 wounds
# Experiment: Primary mouse adipogenic cell culture
# Assay type: cell-based
# Settings: 6 ng/ml hBMP4 or 25 ng/ml hBMP2 with differentiation media
# Description: Primary scar cells were isolated from day 15 wounds as described in D. Gay et al., Nature medicine 19:916 (2013) with minor modifications. Single cell fractions were created and cultured to confluence in high-glucose to DMEM (Gibco) supplemented with 10% FBS (Atlanta Biologicals) and […] Pen/Strep cocktail (Gibco). Upon confluency, cells were cultured in adipocyte differentiation media alone (Cell Solutions) or DMEM supplemented with 5 μg/ml insulin (Sigma), and 1 μM rosiglitazone (Sigma) with either 6 ng/ml of recombinant hBMP4 (R&D Systems), or 25 ng/ml of recombinant hBMP2 (R&D Systems), or differentiation media alone (Cell Solutions). After three days, cells differentiation media was switched to adipocyte maintenance media (Cell Solutions). Cells were cultured in a water-jacketed incubator at 37° C. with 5% CO2 output
# Total RNA was isolated using Trizol reagent (Thermo) or RNEasy Micro-Kit (Qiagen) as per manufacturer's protocol with minor modifications. Total RNA was reverse-transcribed and cDNA was amplified using PCR primers described in J. Ishibashi et al., Mol Cell Biol 32:2289 (2012). See Tables 3 and 4 for the sequences of primers used.
molecule,measurement,setting,value
B1,activation of adipocyte-specific genes (qRT-PCR),,activation of adipocyte-specific genes
same,reprogramming of cultured mouse dermal cells into adipocytes,without BMP non-adipogenic,induced their reprogramming into adipocytes
